Assay: method code SF-TN, from DOI: 10.3891/acta.chem.scand.05-0774

- logP: -0.62
Compound: CC(O)C(=O)O (stereo unspecified)

Reference: the SangsterLogP compilation
